Test results as given in patent US8658131B2, “Compounds comprising 4-benzoylpiperidine as a sigma-1-selective ligand” (Washington University, priority 2010, dated 2014).
Counter-ions that a name gives are not always drawn.

By UniProt entry, the sequences of proteins in these tests, tags left out.
UniProt Q60492, whole entry: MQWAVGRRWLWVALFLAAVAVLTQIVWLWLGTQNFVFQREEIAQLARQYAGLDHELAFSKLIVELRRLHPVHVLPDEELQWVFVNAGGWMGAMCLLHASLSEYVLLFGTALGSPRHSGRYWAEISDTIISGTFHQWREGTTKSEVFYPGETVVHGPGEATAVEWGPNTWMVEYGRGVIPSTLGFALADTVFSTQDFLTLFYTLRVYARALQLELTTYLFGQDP
UniProt Q9R0C9, whole entry: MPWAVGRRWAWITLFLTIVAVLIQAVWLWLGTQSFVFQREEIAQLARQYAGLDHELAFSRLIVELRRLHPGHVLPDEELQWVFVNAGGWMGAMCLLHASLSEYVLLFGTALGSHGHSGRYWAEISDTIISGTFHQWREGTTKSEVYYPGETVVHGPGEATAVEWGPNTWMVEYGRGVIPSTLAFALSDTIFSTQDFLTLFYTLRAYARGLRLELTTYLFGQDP

How the values were obtained:
σ1 receptor = molecular target: T1, σ1 receptor (Cavia porcellus, UniProt Q60492); assay: σ1 receptor binding assay, (+)-[3H]pentazocine, guinea pig brain membranes; conditions: Table 4, Ki values of VAChT specific compounds; tissue not given; read-out: Sigma-1 σ1
T1 construct: using guinea pig brain membrane homogenates; from tissue; host or cells: guinea pig brain membrane homogenates

σ1 receptors = molecular target: T2, σ1 receptors (Rattus norvegicus, UniProt Q9R0C9); assay: σ1 binding of Table 5 compounds
T2 construct: tested in rat brain and in guinea pig membranes, respectively; from tissue; host or cells: rat brain
Description: Compounds were tested for VAChT binding using highly purified Torpedo synaptic vesicles. The σ1 and σ2 binding affinities were tested in rat brain and in guinea pig membranes, respectively. Structures and Equilibrium binding constants (Ki) are reported in Table 5 and Table 6, respectively. As in previous studies, we define ligand selectivity in terms of a selectivity index which is calculated as Ki (σ1 or σ2)/Ki (VAChT).
Consequently, we also screened the target compounds for sigma binding to identify selective VAChT ligands from this new structural class of agents.

## Cc1ccc(C(=O)C2CCN(C3Cc4c(N)cccc4CC3O)CC2)cn1 (centres unmarked) [OS-5-70, (1-(8-amino-3-hydroxy-1,2,3,4-tetrahydronaphthalen-2-yl)piperidin-4-yl)(6-methylpyridin-3-yl)methanone oxalate]
σ1 receptor
  Ki: 11.4 ± 2.04 µM
σ1 receptors
  Ki: 11.4 ± 2.04 µM
